Biological target: TDO2 (Mus musculus (Mouse), UniProt P48776)
Assay: Pharmacodynamic assay for TDO2 in vivo activity: increase of blood tryptophan levels in mice
Conditions: female BALB/c mice, 2 h
Source text: The compounds of the present invention increase the amount of Tryptophan in mouse blood.

Sequences of proteins named here, by UniProt entry; tags and fusion partners are left off. A change or cut given only in a name is not applied to a line headed by its entry.
UniProt P48776: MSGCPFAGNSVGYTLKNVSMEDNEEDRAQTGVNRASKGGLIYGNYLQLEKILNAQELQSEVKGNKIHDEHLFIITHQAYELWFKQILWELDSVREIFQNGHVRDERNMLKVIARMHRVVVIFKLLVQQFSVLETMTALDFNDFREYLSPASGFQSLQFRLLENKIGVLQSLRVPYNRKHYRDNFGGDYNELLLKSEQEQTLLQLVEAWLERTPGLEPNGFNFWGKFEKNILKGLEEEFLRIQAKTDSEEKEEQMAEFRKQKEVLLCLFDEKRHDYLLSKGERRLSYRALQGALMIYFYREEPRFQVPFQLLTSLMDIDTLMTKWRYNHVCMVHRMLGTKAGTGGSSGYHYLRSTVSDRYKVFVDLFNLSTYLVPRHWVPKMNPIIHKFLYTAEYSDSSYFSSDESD

O=S(=O)(c1ccc(-c2c[nH]c3cc(F)ccc23)cn1)N1CCNCC1 [Example 87, 6-fluoro-3-(6-(piperazin-1-ylsulfonyl)pyridin-3-yl)-1H-indole] was tested, and the “Tryptophan concentration in plasma (average ± standard error of the mean)” value (30 mg/kg oral gavage) was 41632 ± 1675, the “increase of circulating Tryptophan compared to vehicle-treated controls” value (“increase of circulating Tryptophan” below) (30 mg/kg oral gavage) was 89% and the “Tryptophan concentration in plasma (average ± standard error of the mean)” value (60 mg/kg oral gavage) was 52146 ± 2042. The “increase of circulating Tryptophan” value (60 mg/kg oral gavage) was 137%, the “Tryptophan concentration in plasma (average ± standard error of the mean)” value (100 mg/kg oral gavage) was 53447 ± 1695 and the “increase of circulating Tryptophan” value (100 mg/kg oral gavage) was 143%.
